The target of assay [1] is Acetylcholinesterase (Bos taurus, UniProt P23795). Description: Concentration required to inhibit hydrolytic activity of bovine erythrocyte acetylcholinesterase by 50%.
Assay [2] has as its system Mus musculus. As to the kind of experiment: Ability to antagonize paraoxon (1.0 mg/kg sc)-induced motor incoordination in mice.
The subject of assay [3] is Mus musculus. As to the kind of experiment: Ability to antagonize paraoxon-induced lethality in mice.(umol/kg required to protect 50% of the mice for 24 h versus a LD99 dose of paraoxon).
Assay [4] relates to Mus musculus. As to the kind of experiment: Compound was evaluated for therapeutic index (LD50 / ED50), in mice.
The species entered for assay [5] is Mus musculus. Description: Compound was evaluated for the survival time of mice with the combination of Compound 1.
For assay [6], the species on record is Mus musculus. Description: Compound was evaluated for the survival time of mice with the combination of Pyridostigmine.
Assay [7] is filed under the species Mus musculus. Description: Compound was evaluated for the survival time of mice with the combination of physostigmine.

Amino acid sequences for entries named in this document (tags omitted). Residues count along the entry.
UniProt P23795, 31-613 limits assumed: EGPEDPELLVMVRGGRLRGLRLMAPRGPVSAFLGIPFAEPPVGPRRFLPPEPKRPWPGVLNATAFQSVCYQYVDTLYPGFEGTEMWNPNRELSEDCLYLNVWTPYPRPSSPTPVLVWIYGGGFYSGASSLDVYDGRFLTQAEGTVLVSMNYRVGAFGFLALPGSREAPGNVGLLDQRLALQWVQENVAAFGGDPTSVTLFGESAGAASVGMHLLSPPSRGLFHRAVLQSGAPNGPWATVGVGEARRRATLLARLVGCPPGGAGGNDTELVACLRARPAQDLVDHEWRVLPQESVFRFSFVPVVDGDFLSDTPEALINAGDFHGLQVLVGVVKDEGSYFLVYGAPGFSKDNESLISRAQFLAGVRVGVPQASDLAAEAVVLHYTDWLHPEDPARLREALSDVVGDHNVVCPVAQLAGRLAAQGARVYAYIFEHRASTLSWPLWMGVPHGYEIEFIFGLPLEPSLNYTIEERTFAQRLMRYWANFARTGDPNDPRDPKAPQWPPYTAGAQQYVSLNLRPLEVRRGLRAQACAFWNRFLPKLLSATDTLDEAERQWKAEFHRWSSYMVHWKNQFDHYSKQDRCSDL

In assay [1], `C[N+](C)(CC(=O)c1ccc(-c2ccc(C(=O)C[N+](C)(C)CC3CCOCO3)cc2)cc1)CC1CCOCO1` (stereo not drawn) registered an IC50 of 14.2 µM.
As to `C[N+](C)(CC(=O)c1ccc(-c2ccc(C(=O)C[N+](C)(C)CC3OCCCO3)cc2)cc1)CC1OCCCO1`, it took 0.003 µM to reach half-maximal inhibition in assay [1] (IC50).
Same read-out and setting: with `C[N+](C)(CC(=O)c1ccc(-c2ccc(C(=O)C[N+](C)(C)CC3CCCCO3)cc2)cc1)CC1CCCCO1` (stereo not drawn) the figure was 6.9 µM.
In assay [2], `C[N+](C)(CC(=O)c1ccc(-c2ccc(C(=O)C[N+](C)(C)CC3OCCCO3)cc2)cc1)CC1OCCCO1.[Br-].[Br-]` returned an ED50 of 0.0031 µmol/kg. The PD50 in assay [3] came out at 0.019 µM/kg. Besides, in assay [4], the Therapeutic index turned out to be 380.
`C[N+](C)(CC(=O)c1ccc(-c2ccc(C(=O)C[N+](C)(C)CC3CCCCC3)cc2)cc1)CC1CCCCC1` came in with an IC50 in assay [1] of 25 µM.
The same measure, in the same setting: with `C[N+](C)(CC(=O)c1ccc(-c2ccc(C(=O)C[N+](C)(C)CC3OCCO3)cc2)cc1)CC1OCCO1` the figure was 9.9 µM.
The compound `C[N+](C)(CC(=O)c1ccccc1)CC1OCCCO1` showed an IC50 in assay [1] of more than 100 µM.
In the case of `CN(C)C(=O)Oc1ccc[n+](C)c1`, the ED50 in assay [2] was found to be 0.0136 µmol/kg. The compound also came in with a PD50 in assay [3] of 0.66 µM/kg.
For `C[N+](C)(CC(=O)c1ccc(-c2ccccc2)cc1)CC1OCCCO1`, in assay [1], the midpoint of inhibition, the IC50, lay at 20.1 µM.
As for `C[N+](C)(CC(=O)c1ccc(-c2ccc(C(=O)C[N+](C)(C)CC3CCCCO3)cc2)cc1)CC1CCCCO1.[Br-].[Br-]` (stereo not drawn), the PD50 in assay [3] is 0.7 µM/kg. The Therapeutic index in assay [4] worked out at 10.
Consider `CCOP(=O)(OCC)Oc1ccc([N+](=O)[O-])cc1.C[N+](C)(CC(=O)c1ccc(-c2ccc(C(=O)C[N+](C)(C)CC3OCCCO3)cc2)cc1)CC1OCCCO1.[Br-].[Br-]`, for which, in assay [5], the Survival time turned out to be 24 h.
With `CCOP(=O)(OCC)Oc1ccc([N+](=O)[O-])cc1.CN1C=C(OC(=O)N(C)C)C=CC1`, the Survival time in assay [6] was less than 2 min.
For `CCOP(=O)(OCC)Oc1ccc([N+](=O)[O-])cc1.CNC(=O)Oc1ccc2c(c1)[C@]1(C)CCN(C)[C@@H]1N2C`, in assay [7], the Survival time was less than 2 min.
The compound `C[N+](C)(C)CC1OCCCO1` returned a half-maximal inhibitory concentration (IC50) in assay [1] of more than 100 µM.

The values are drawn from ChEMBL document CHEMBL1125689, “Structure-activity studies on a potent antagonist to organophosphate-induced toxicity” (1991).
